# scFv variants of Ab-95 (light chain) against a SARS-CoV-2 spike peptide

The target is the same throughout: PDVDLGDISGINAS, from the HR2 region of SARS-CoV-2 spike.

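The starting antibody came from a phage panning campaign against this peptide. Library AAYL52 holds single substitutions and randomly drawn double and triple substitutions in the CDRs. The scFvs were displayed on barcoded MATa yeast, the peptide on MATalpha yeast. After mating in shaken culture at 30 °C for 16 h, diploids were selected and their barcode pairs sequenced. Scores were corrected for input abundance and mapped to Kd with protein pairs of known affinity run in the same pool. There are three technical replicates.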

The variants keep the heavy chain, the linker and the frameworks of Ab-95 (scFv order VH, a (GGGGS)3 linker, VL).
VH: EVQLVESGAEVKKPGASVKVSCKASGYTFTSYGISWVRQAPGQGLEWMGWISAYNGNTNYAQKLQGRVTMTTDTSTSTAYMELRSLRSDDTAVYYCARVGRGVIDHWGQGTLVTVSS
VL: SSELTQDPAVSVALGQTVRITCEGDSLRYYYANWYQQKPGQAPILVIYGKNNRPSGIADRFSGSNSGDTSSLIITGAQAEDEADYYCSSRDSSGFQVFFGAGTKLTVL

Positions count from residue 1 of the parent VL; G24C puts C in place of G.
Kd is apparent (estimated from mating counts) and averaged on the log scale over replicates with a signal. Smaller is tighter.
A pair that was not seen in any replicate is written "nd"; this usually means weak binding, but a binder can also be missed.

changes,Kd,seen in
G24C+L27W+A32S,5.0 µM,1 of 3
D25V+L27Y+N33Y,2.3 µM,3 of 3
S26K+P54F+R90S,200 µM,1 of 3
A32D+S88K,6.7 µM,1 of 3
Y30T+R53V+S55P,13 nM,3 of 3
Y29W+A32W+N33F,4.1 µM,2 of 3
S26L+Y29I+N52H,nd,0 of 3
D25Q+Y29P+F98P,24 µM,2 of 3
Y30S+Y31T+D91V,22 nM,3 of 3
Y29G+Y30Q+Q96K,10 nM,3 of 3
G24F+R28I+N33I,250 nM,3 of 3
Y29Q+S88V+R90N,1.9 µM,3 of 3
G49I+S88T+S89F,19 µM,1 of 3
K50L+N51Q+V97P,11 µM,2 of 3
K50D+S89P+Q96S,130 nM,3 of 3
S93M+V97P+F98G,75 nM,3 of 3
L27S+P54Q+D91Y,nd,0 of 3
D25M+K50W+S92Y,4.8 µM,2 of 3
E23F+G49F+S92T,51 µM,1 of 3
N33R+R90S+F98C,nd,0 of 3
G24F+D91E,4.4 µM,3 of 3
S26K+N52D+F98Q,9.4 µM,1 of 3
R28M+N33Q+N52V,110 nM,3 of 3
G24L+P54A+R90Y,1.8 µM,3 of 3
G49D+N51Y+F98E,6.1 µM,3 of 3
G24D+S55V+S93K,nd,0 of 3
Y30T+S55L+S88P,9.2 µM,2 of 3
A32M+G49W+F98L,nd,0 of 3
S26N+S89D+Q96G,460 nM,3 of 3
Y29I+K50M+S88A,460 nM,3 of 3
S26L+N51G+Q96T,nd,0 of 3
E23D+S55Q,150 nM,3 of 3
E23S+N33S+S89F,20 µM,1 of 3
E23D+S89P+F98R,550 nM,3 of 3
S55A+S88F+S92R,6.2 µM,1 of 3
D25R+S92W,500 nM,3 of 3
S26M+S55V+S93R,11 µM,1 of 3
L27M+A32R+R53Y,11 µM,3 of 3
G49Q+D91Q+F98R,110 µM,1 of 3
N33C+S89E+V97Y,25 µM,1 of 3
R53E+R90L+G94N,4.2 µM,3 of 3
R53A+S89H+D91T,28 µM,2 of 3
Y31C+S89C+S92N,290 nM,3 of 3
L27A+N51R+S92Y,14 µM,2 of 3
Y29L+A32V+V97S,nd,0 of 3
K50G+N51H+F98I,200 nM,3 of 3
S26C+L27P+Y30G,4.9 µM,3 of 3
Y30C+P54S,950 nM,3 of 3
S26A+Q96K,1.5 µM,3 of 3
G24K+Y30W+S93C,nd,0 of 3
G24L+S89W,4.4 µM,3 of 3
L27V+N52Q+P54W,510 nM,3 of 3
G49F+P54I+S89A,22 µM,2 of 3
R28P+S93M+V97F,63 µM,2 of 3
S26D+G49C+R90F,19 µM,1 of 3
A32T+G49Q+F95C,97 µM,2 of 3
N52H+S93V+Q96C,15 µM,2 of 3
R28I+Y29P,230 nM,3 of 3
E23W+G49L+S89D,24 µM,3 of 3
R53I+S93D+F98S,nd,0 of 3
S26D+S88A+S89A,210 nM,3 of 3
A32V+D91L+V97M,2.4 µM,1 of 3
S26D+F95V+V97T,88 nM,3 of 3
S26Y+Y29E+S88F,8.0 µM,3 of 3
G94Y+F95V+V97I,2.5 µM,3 of 3
N52L+R53I+Q96M,11 µM,2 of 3
A32C+N33Q+S92C,5.7 µM,2 of 3
Y29A+K50Y+N51H,3.8 µM,3 of 3
G24M+G94F+F95Y,3.2 µM,1 of 3
S26M+N33V+N51P,53 µM,2 of 3
G24C+R53H+P54A,1.6 µM,3 of 3

Picked from the list: the 4 lowest averages where every replicate gave a value.

changes,Kd,seen in
Y29G+Y30Q+Q96K,10 nM,3 of 3
Y30T+R53V+S55P,13 nM,3 of 3
Y30S+Y31T+D91V,22 nM,3 of 3
S93M+V97P+F98G,75 nM,3 of 3

In this assay the parent's reference entry averaged 200 nM; its copy inside this library read 180 nM.
Nonspecific signal, from three strains lacking the peptide, appeared in 28% of pairings of library AAYL52, centred on 8.2 µM (5% of these signals below 800 nM); values are not corrected for it.

Data: MIT Lincoln Laboratory AlphaSeq set, Engelhart et al. 2022, doi:10.1038/s41597-022-01779-4, as distributed in FLAb.